This is a selection; strong and weak results do not stand in their true shares. Potency and affinity values are given separately. Activity calls are given as the source filed them.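 The calls were made as follows: active = compounds whose percent cytotoxicity in the single-dose primary screen, scaled between solvent and toxic-drug controls, exceeds 50; inactive = the rest.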

The nature of the assay: cytotoxicity in KRAS-transformed pancreatic duct cells, primary screen, cell-based, fluorescence, HTS (AID 431).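 Also: 0% = DMSO solvent wells and 100% = doxorubicin-treated wells.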 The note with it: HPDE-C7K KRASV12 cells, Alamar Blue viability, 48 h; at 10 µM; hits give high values. (Alamar Blue is a resazurin reagent that responds to reducing activity.)
As for `Cc1c2non([O-])c-2c(C)[n+](=O)[n+]1[O-]`, the cytotoxicity was inactive: -9.4%. With `O=C(OC1CN2CCC1CC2)c1cccc(Cl)c1` (stereo not drawn) the figure was inactive: -7.3%; with `c1nnnn1CCn1cnnn1`, inactive: -34.3%; with `O=P(Nc1nccs1)(c1ccccc1)c1ccccc1`, inactive: 9.7%.

For `O=P1(Nc2nc3ccc(Cl)cc3s2)COc2ccccc2O1` (stereo not drawn), the cytotoxicity was inactive: -22.5%.

On to `COC(=O)c1cc2c(s1)N=C(c1ccccc1)N(C)P2(=O)N1CCOCC1` (stereo not drawn), for which the cytotoxicity was inactive: 0.2%. For the compound `CCOP1(=S)c2c(C)nn(CCC#N)c2N=C(c2ccccc2F)N1C` (stereo not drawn), the cytotoxicity was inactive: -5.7%. As for `O=P(Nc1nccs1)(c1ccccc1)c1nc2ccccc2s1` (stereo not drawn), the figure is inactive: -9.7%; as for `CCOP1(=S)c2c(C)nn(CCC#N)c2N=C(c2ccc(F)cc2)N1C` (stereo not drawn), inactive: -6.4%. Regarding `Cc1cccc(OCC(=O)OC2CN3CCC2CC3)c1` (stereo not drawn), the cytotoxicity is inactive: 3.5%. With `Clc1n[nH]nc1-c1nn[nH][15n]1` the figure was inactive: -0.2%; with `O=P1(Nc2ccccn2)COc2ccccc2OC1`, inactive: -3.9%.

Regarding `Cc1nn(-c2ccccc2)c2c1P(=O)(N1CCOCC1)N(C)C(c1ccccc1)=N2` (stereo not drawn), the cytotoxicity was inactive: -0.5%.

For `O=P1(Nc2ccc(Br)cn2)COc2ccccc2OC1`, the cytotoxicity was inactive: -25.3%. As to `Cc1ccc(OCC(=O)OC2CN3CCC2CC3)cc1` (stereo not drawn), the cytotoxicity is inactive: -18.4%. With `O=P1(Nc2ncccn2)COc2ccccc2OC1` the figure was inactive: -6.1%; with `O=C(COc1ccccc1)OC1CN2CCC1CC2` (stereo not drawn), inactive: -5.9%.

Consider `COP1(=S)c2c(C)nn(CCC#N)c2N=C(c2ccc(F)cc2)N1C` (stereo not drawn), for which the cytotoxicity is inactive: -2.2%.
